Values of other authors as cited in patent publication US20130209522A1, “Drug Release from a Polymer-Controlled Local Antibiotic Delivery System Using a Degradable Bone Graft” (UNIVERSITY OF UTAH RESEARCH FOUNDATION, priority 2012, published 2013).

Details: Table 3, for reference; cited from earlier work

**Q.** For `O=C(O)c1cn(C2CC2)c2cc(N3CCNCC3)c(F)cc2c1=O` [Ciprofloxacin], which “pH induced in the surrounding” value is on record?
**A.** Amphoteric
